Patent US20250360236A1, “PROSTATE SPECIFIC MEMBRANE ANTIGEN (PSMA) LIGANDS” (Deutsches Krebsforschungszentrum Stiftung des öffentlichen …, priority 2022, published 2025)

Experiments:
LNCaP xenograft tumors = assay: in vivo; design: species or system BALB/c nu/nu mice; details: mouse
in vivo = assay: in vivo; design: species or system BALB/c nu/nu mice; details: male, BALB/c nu/nu, mouse, iv, 0.06 nmol, total radioactivity, Organ distribution
PSMA+-cells (LNCaP) = assay: Cell surface binding and internalization experiments; assay type: cell-based; details: 68Ga-labeled compounds, 30 nM, 45 min 37 °C, specific uptake by blockage with 500 μM 2-PMPA, mean ± SD n=3
Procedure: For internalization experiments, 10^5 cells per well were seeded in poly-L-lysine coated 24-well cell culture plates 24 h before incubation. After washing, the cells were incubated with 30 nM of the radiolabeled compound for 45 min at 37° C. Cellular uptake was terminated by washing 3 times with 1 mL of ice-cold PBS. To remove surface-bound radioactivity, cells were incubated twice with 0.5 mL glycine-HCl in PBS (50 mM, pH=2.8) for 5 min. The cells were washed with 1 mL of ice-cold PBS and lysed using 0.3 N NaOH (0.5 mL). The surface-bound and the internalized fractions were measured in a gamma counter. The cell uptake was calculated as percent of the initially added radioactivity bound to 10^5 cells [% ID/10^5 cells].

LNCaP (PSMA+) tumor = assay: Optical imaging of dissected tumor, LNCaP; assay type: in vivo, BALB/c nu/nu mice; details: 0.5 nmol 68Ga-labeled BP-2, 2 h p.i., Odyssey CLx, excitation 700 nm, n=1
Procedure: (§1) For imaging studies, mice were anesthetized (2% isoflurane) and 0.5 nmol of the ^68Ga-labeled compound in 0.9% NaCl (pH 7) were injected into the tail vein. PET imaging was performed with μPET/MRI scanner (BioSpec 3T, Bruker) with a dynamic scan for 60 min. The images were iteratively reconstructed (MLEM 0.5 algorithm, 12 iterations) and were converted to SUV images. Quantification was done using a ROI (region of interest) technique and data in expressed in time activity curves as SUVbodyweight. Mice were sacrificed after PET/MR imaging and optical imaging of the subcutaneous tumor and organs of interest was performed with the Odyssey CLx system (LI-COR Biosciences, excitation wavelength 700 nm). All animal experiments complied with the current laws of the Federal Republic of Germany.

LNCaP tumor = assay: Small-animal PET/MR imaging; assay type: in vivo, mice; details: 0.5 nmol 68Ga-labeled, dynamic PET up to 60 min p.i.
Procedure: as §1

PC-3 (PSMA-) tumor = assay: Optical imaging of dissected tumor, PC-3; assay type: in vivo, BALB/c nu/nu mice; details: 0.5 nmol 68Ga-labeled BP-2, 2 h p.i., Odyssey CLx, excitation 700 nm, n=1
Procedure: as §1

CN(CC(=O)NC[C@H]1CC[C@H](C(=O)N[C@H](Cc2ccc3ccccc3c2)C(=O)NCCCC[C@@H](NC(=O)N[C@H](CCC(=O)O)C(=O)O)C(=O)O)CC1)C(=O)CN(C)C(=O)CN(C)C(=O)CN(C)C(=O)CN(C)C(=O)CN(C)C(=O)CN(C)C(=O)CN(C)C(=O)CN(C)C(=O)CN(C)C(=O)C(CCCCNC(=O)CN1CCN(CC(=O)O)CCN(CC(=O)O)CCN(CC(=O)O)CC1)NC(=O)CN(C)C(=O)CN(C)C(=O)CN(C)C(=O)CN(C)C(=O)CN(C)C(=O)CCNC(=O)CCCCC[N+]1=C(/C=C/C=C/C=C2/N(C)c3ccc(S(=O)(=O)[O-])cc3C2(C)C)C(C)(C)c2cc(S(=O)(=O)O)ccc21 (single isomer, unassigned) [^177Lu-BP-2, metal not drawn]
Organ distribution, Kidney (LNCaP xenograft tumors; male, BALB/c nu/nu, iv, 0.06 nmol, 2 h): 4.61 ± 0.45 % ID/g
tissue uptake at 1 h (in vivo; Blood): 0.16 ± 0.01 %ID/g
tissue uptake at 2 h (in vivo; Blood): 0.05 ± 0.01 %ID/g
tissue uptake at 1 h (in vivo; Brain): 0.02 ± 0.005 %ID/g
tissue uptake at 2 h (in vivo; Brain): 0.01 ± 0.003 %ID/g
tissue uptake at 1 h (in vivo; Heart): 0.07 ± 0.01 %ID/g
tissue uptake at 2 h (in vivo; Heart): 0.03 ± 0.003 %ID/g
tissue uptake at 1 h (in vivo; Intestine): 0.1 ± 0.06 %ID/g
tissue uptake at 2 h (in vivo; Intestine): 0.03 ± 0.004 %ID/g
tissue uptake at 1 h (in vivo; Liver): 1.18 ± 0.61 %ID/g
tissue uptake at 2 h (in vivo; Liver): 1.25 ± 0.13 %ID/g
tissue uptake at 1 h (in vivo; Lung): 0.27 ± 0.01 %ID/g
tissue uptake at 1 h (in vivo; Muscle): 0.03 ± 0.01 %ID/g
tissue uptake at 2 h (in vivo; Muscle): 0.06 ± 0.07 %ID/g
tissue uptake at 1 h (in vivo; Spleen): 1.65 ± 0.86 %ID/g
tissue uptake at 2 h (in vivo; Spleen): 1.37 ± 0.1 %ID/g
tissue uptake at 2 h (in vivo; Tumor): 4.23 ± 0.19 %ID/g
tissue uptake at 1 h (in vivo; Tumor LNCaP): 5.38 ± 2.03 %ID/g

CN(CC(=O)NC[C@H]1CC[C@H](C(=O)N[C@H](Cc2ccc3ccccc3c2)C(=O)NCCCC[C@@H](NC(=O)N[C@H](CCC(=O)O)C(=O)O)C(=O)O)CC1)C(=O)CN(C)C(=O)CN(C)C(=O)CN(C)C(=O)CN(C)C(=O)CN(C)C(=O)CN(C)C(=O)CN(C)C(=O)CN(C)C(=O)CN(C)C(=O)C(CCCCNC(=O)CN1CCN(CC(=O)O)CCN(CC(=O)O)CCN(CC(=O)O)CC1)NC(=O)CN(C)C(=O)CN(C)C(=O)CN(C)C(=O)CN(C)C(=O)CN(C)C(=O)CCNC(=O)CCCCC[N+]1=C(/C=C/C=C/C=C2/N(C)c3ccc(S(=O)(=O)[O-])cc3C2(C)C)C(C)(C)c2cc(S(=O)(=O)O)ccc21 (single isomer, unassigned) [BP-2, Glu-urea-Lys-2-Nal-Chx-Sar10-Lys(DOTA)-Sar5-bAla-sulfoCy5]
Specifically cell surface bound (PSMA+-cells (LNCaP)): 1.2 ± 0.8 % AR/10^5 cells
Specifically internalized (PSMA+-cells (LNCaP)): 0.5 ± 0.4 % AR/10^5 cells
tumor uptake at 2 h p.i. as compared to 1 h p.i. (LNCaP xenograft tumors): differs not significantly
tissue uptake at 2 h (in vivo; Kidney): 4.61 ± 0.45 %ID/g
fluorescence signal in PSMA+-tumor (LNCaP (PSMA+) tumor): high fluorescence signal
pharmacokinetic properties / excretion profile compared to PSMA-617 (LNCaP tumor): accelerated excretion profile
tumor targeting properties compared to PSMA-617 (LNCaP tumor): comparable to the parental reference PSMA-617
fluorescence signal in PSMA−-tumor (PC-3 (PSMA-) tumor): negligible fluorescence signal
